Assay results published in patent US20090196864A1 (priority 2005, published 2009).

Test system: S5 cells
Assay: Cry1Ab toxin-induced cytotoxicity / cell death, Trypan blue exclusion analysis
Format: cell-based, Trichoplusia ni
Conditions: S5 cells treated with inhibitor, switched to inhibitor-free buffer before Cry1Ab toxin treatment; percent of dead cells by Trypan blue staining

O=[As]c1ccccc1 (stereo not shown)
Cell death: + (+ = 80 ± 5% cell death)
